Test results as given in publication PMC2677886 (Nucleic Acids Research, 2009).

Experiments:
[1] = molecular target: MRE11–RAD50 (MR) complex, recombinant (human, UniProt P49959; Q92878); assay: pull-down
[2] = molecular target: MRE11–RAD50–NBS1 (MRN) complex, recombinant (human, UniProt P49959; Q92878; O60934); assay: pull-down

B1: RECQ5–CBD fusion protein (natural protein, human, UniProt O94762 1-991, looked up)
chain: MSSHHTTFPFDPERRVRSTLKKVFGFDSFKTPLQESATMAVVKGNKDVFVCMPTGAGKSLCYQLPALLAKGITIVVSPLIALIQDQVDHLLTLKVRVSSLNSKLSAQERKELLADLEREKPQTKILYITPEMAASSSFQPTLNSLVSRHLLSYLVVDEAHCVSQWGHDFRPDYLRLGALRSRLGHAPCVALTATATPQVQEDVFAALHLKKPVAIFKTPCFRANLFYDVQFKELISDPYGNLKDFCLKALGQEADKGLSGCGIVYCRTREACEQLAIELSCRGVNAKAYHAGLKASERTLVQNDWMEEKVPVIVATISFGMGVDKANVRFVAHWNIAKSMAGYYQESGRAGRDGKPSWCRLYYSRNDRDQVSFLIRKEVAKLQEKRGNKASDKATIMAFDALVTFCEELGCRHAAIAKYFGDALPACAKGCDHCQNPTAVRRRLEALERSSSWSKTCIGPSQGNGFDPELYEGGRKGYGDFSRYDEGSGGSGDEGRDEAHKREWNLFYQKQMQLRKGKDPKIEEFVPPDENCPLKEASSRRIPRLTVKAREHCLRLLEEALSSNRQSTRTADEADLRAKAVELEHETFRNAKVANLYKASVLKKVADIHRASKDGQPYDMGGSAKSCSAQAEPPEPNEYDIPPASHVYSLKPKRVGAGFPKGSCPFQTATELMETTRIREQAPQPERGGEHEPPSRPCGLLDEDGSEPLPGPRGEVPGGSAHYGGPSPEKKAKSSSGGSSLAKGRASKKQQLLATAAHKDSQSIARFFCRRVESPALLASAPEAEGACPSCEGVQGPPMAPEKYTGEEDGAGGHSPAPPQTEECLRERPSTCPPRDQGTPEVQPTPAKDTWKGKRPRSQQENPESQPQKRPRPSAKPSVVAEVKGSVSASEQGTLNPTAQDPFQLSAPGVSLKEAANVVVKCLTPFYKEGKFASKELFKGFARHLSHLLTQKTSPGRSVKEEAQNLIRHFFHGRARCESEADWHGLCGPQR
[1]
  binding result: binds
[2]
  binding result: binds
